Results published in paper PMC11096469.

Target: C_(γ1-3) chain (VH-deleted human IgG1 heavy chain) (human)
Assay: ELISA

## ψLC (2C281 ψVκ-Cκ) (antibody)
  other: 40%
